Data reported in US20250154154A1 (Relay Binney Street, 2nd Floor, priority 2020, published 2025).
pIC50: −log10 of the molar value. Read-outs that look alike come from different tables or passages of the source.

By UniProt entry, the sequences of proteins in these tests, tags left out.
UniProt P12931, whole entry: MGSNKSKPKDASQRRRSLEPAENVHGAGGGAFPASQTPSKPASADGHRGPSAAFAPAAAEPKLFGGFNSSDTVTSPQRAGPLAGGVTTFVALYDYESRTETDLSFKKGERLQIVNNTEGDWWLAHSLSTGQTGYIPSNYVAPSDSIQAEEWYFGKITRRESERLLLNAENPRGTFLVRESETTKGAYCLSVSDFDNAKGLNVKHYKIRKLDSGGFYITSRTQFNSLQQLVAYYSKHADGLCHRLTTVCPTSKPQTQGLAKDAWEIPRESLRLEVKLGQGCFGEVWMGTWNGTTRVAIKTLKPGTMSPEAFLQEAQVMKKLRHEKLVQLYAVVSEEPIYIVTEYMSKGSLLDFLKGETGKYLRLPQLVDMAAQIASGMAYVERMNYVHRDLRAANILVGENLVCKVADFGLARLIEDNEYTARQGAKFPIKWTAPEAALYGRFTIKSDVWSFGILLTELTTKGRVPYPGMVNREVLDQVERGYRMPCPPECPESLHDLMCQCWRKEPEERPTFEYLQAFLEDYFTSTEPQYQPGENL

Assays:
RBE cells = assay: Cell Viability Protocol (CellTiterGlo), RBE cells
SRC = SRC (Homo sapiens, UniProt P12931); assay: SRC Biochemical Assay Protocol (microfluidic mobility shift assay, FLPeptide4 substrate); details: read-out: Src Biochemical Assay Protocol IC50
[1] = test system: phospho-S6RP (Ser 235/236) in RBE cells; assay: Cellular Proliferation Protocol (cellular phospho-S6RP HTRF), RBE cells; details: read-out: Cellular Proliferation Protocol IC50, 6 hours treatment, RBE or SNU-1079 cells, cell line not given

`C=CC(=O)N1CCC(N2CC(C#Cc3[nH]c4ncncc4c3-c3ccc(Oc4ccccc4)cc3)C2)CC1` gave a pIC50 (RBE cells; read-out: Cell Viability Protocol IC50, RBE or SNU-1079 cells, 72 or 120 hour, cell line and time not given) of 6.00 to 8.00, a pIC50 (SRC) of 5.00 to 6.00 and a pIC50 [1] of 6.00 to 8.00.
Compound `CN(C)C/C=C/C(=O)N1CC(C#Cc2c(-c3ccc(Oc4ccccc4)cc3)c3c(N)ncnc3n2C)C1` [III-84] has a pIC50 (SRC) of 6.00 to 8.00.
In the case of `COc1cc(Oc2ccccc2)ccc1-c1c(C#C[C@@H]2[C@H]3CN(C(=O)/C=C/CN(C)C)C[C@@H]23)n(C)c2ncnc(N)c12`, the pIC50 (RBE cells; read-out: Cell Viability Protocol IC50, RBE or SNU-1079 cells, 72 or 120 hour, cell line and time not given, tested form: formate (1.3 equivalents of formic acid)) was > 8.00 and the pIC50 (SRC; tested form: formate (1.3 equivalents of formic acid)) was 6.00 to 8.00.
